The entries are a selection whose mix differs from that of the whole data set. Activity calls are given as the source filed them. Rule as the data show it: active = activation above about 4.9%; inactive = the rest.

The chains behind the UniProt entries cited, without tags or fusion partners. Where a name states a change or a piece, a line headed by the entry shows the natural chain unless it says otherwise.
UniProt Q8TDV0: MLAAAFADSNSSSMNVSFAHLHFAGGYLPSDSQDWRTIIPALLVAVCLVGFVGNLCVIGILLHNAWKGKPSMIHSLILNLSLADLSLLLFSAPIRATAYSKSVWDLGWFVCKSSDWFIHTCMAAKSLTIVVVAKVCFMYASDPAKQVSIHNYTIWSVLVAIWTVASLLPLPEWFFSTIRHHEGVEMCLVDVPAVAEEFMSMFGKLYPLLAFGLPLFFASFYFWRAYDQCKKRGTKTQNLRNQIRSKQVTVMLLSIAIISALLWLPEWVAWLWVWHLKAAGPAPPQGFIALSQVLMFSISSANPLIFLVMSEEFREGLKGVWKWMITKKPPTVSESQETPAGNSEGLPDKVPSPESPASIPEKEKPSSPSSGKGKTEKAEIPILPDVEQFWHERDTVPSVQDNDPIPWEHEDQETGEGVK

The target in this experiment is G-protein coupled receptor 151 (Homo sapiens) (UniProt Q8TDV0). Description: activators of human GPR151, primary screen, cell-based, PathHunter beta-arrestin, luminescence (AID 1508602).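 Also: 0% = median of compound wells and 100% = cells with positive control.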 To be noted: PathHunter beta-arrestin GPR151 cells, at 11.2 µM, stronger effect = higher value.
As for `O=C(Nc1cccc(F)c1)N(Cc1ccco1)C1CCN(CCc2cccs2)CC1`, the activation was inactive: 2.44%. As for `O=C(COC(=O)C(O)(c1ccccc1)c1ccccc1)NCCN1C(=O)CSC1=O`, the figure is inactive: -0.768%. For the molecule `CC(=O)OC1CN2CCC1C(c1ccccc1)C2` (stereo not given), the activation is inactive: -0.756%. The figure for `O=[N+]([O-])c1cc([N+](=O)[O-])c(NCCCO)c([N+](=O)[O-])c1` is inactive: 1.9%. As to `CCc1cc2c[n+](C3CCCCC3)sc2s1`, the activation was inactive: -1.49%.

As for `COc1ccccc1OP(=O)(Nc1ccccn1)Oc1ccccc1OC`, the activation was inactive: -0.407%. For `COP(=O)(NS(=O)(=O)c1ccc(Cl)cc1)OC`, the activation was inactive: -0.983%. As for `O=C(OC1CN2CCC1CC2)C1COc2ccccc2O1` (stereo not given), the figure is inactive: -1.72%; as for `O=C(CCNCCCl)c1ccccc1`, inactive: 0.227%.

As to `O=C(N/N=C/c1ccc([N+](=O)[O-])cc1)c1cc([N+](=O)[O-])cc([N+](=O)[O-])c1`, the activation was inactive: 0.993%. Turning to `Cc1nc(Nc2cccc([N+](=O)[O-])c2)nc(Nc2cccc([N+](=O)[O-])c2)c1[N+](=O)[O-]`, the activation is inactive: 0.505%. The figure for `Cc1cc(NP2(=O)C=C(c3ccccc3)SC(c3ccccc3)=C2)n[nH]1` is inactive: -1.45%; for `O=P(Nc1ccccn1)(OCC(F)(F)F)Oc1ccccc1` (stereo not given) it is inactive: -0.813%. The figure for `CCCCOP1(=S)N=C2c3ccccc3CN2c2cc(N(C)C)ccc21` (stereo not given) is inactive: 0.245%. The figure for `CCOP(=O)(Nc1cccc(C(F)(F)F)c1)OCC` is inactive: 0.644%; for `Cc1cc(C)nc(NNc2c([N+](=O)[O-])cc([N+](=O)[O-])c(C)c2[N+](=O)[O-])n1` it is inactive: -0.0701%.

Take `Cc1ccc(S(=O)(=O)N2C(=O)CSC2C(Cl)(Cl)Cl)cc1` (stereo not given): the activation was inactive: 1.28%. As for `CC(C)OC(=O)NC(SC#N)C(Cl)(Cl)Cl` (stereo not given), the figure is inactive: 0.834%; as for `N=C(N)SCC(Br)CN1C(=O)c2ccccc2C1=O` (stereo not given), inactive: -0.722%. The figure for `O=P(/N=C(/N1CCOCC1)C(Cl)(Cl)Cl)(N1CCOCC1)N1CCOCC1` is inactive: 0.0648%; for `O=C(COC(=O)C(O)(c1ccccc1)c1ccccc1)NCc1cccs1` it is inactive: -0.135%; for `O=C(OC1CN2CCC1CC2)c1cccc(F)c1` (stereo not given) it is inactive: -0.751%.

Turning to `CCc1nc2c(n1)c1c(non1O)c1c2no[n+]1[O-]`, the activation is inactive: 2.39%. The figure for `CCOC(=O)c1ccccc1OP(=O)(OCC)SCC(C)C` (stereo not given) is inactive: 0.678%; for `Cc1c([N+](=O)[O-])c([N+](=O)[O-])nn1CC(=O)Nc1cc(O)cc([N+](=O)[O-])c1` it is inactive: 1.06%. As for `Cc1cccc(NC2=NCC(CBr)S2)c1` (stereo not given), the activation is inactive: -2.5%.

With `Cc1c([N+](=O)[O-])cc(C(=O)Nc2ccc([N+](=O)[O-])cc2)cc1[N+](=O)[O-]`, the activation was inactive: -0.0466%. As for `CCOP(=O)(Nc1ccc(Br)cc1)OCC`, the figure is inactive: -0.225%; as for `CCCCOP(=O)(OCCCC)N(CC)CC`, inactive: -0.316%.

For `O=C(c1ccc2c(c1)OCO2)N(Cc1ccco1)C1CCN(CCc2ccccn2)CC1`, the activation was inactive: -0.601%.

In the case of `O=[N+]([O-])c1cc(/C=N/N=C/c2cc([N+](=O)[O-])cc([N+](=O)[O-])c2O)c(O)c([N+](=O)[O-])c1`, the activation was inactive: 1.8%. The figure for `C[n+]1c2n(c3ccccc31)CC(Cl)CS2` (stereo not given) is inactive: -0.569%; for `CC(C)(C)C(=O)NC(Sc1ccncn1)C(Cl)(Cl)Cl` (stereo not given) it is inactive: 0.163%; for `CN1C(=O)C2C(NC(=NCCN3CCOCC3)N2C)N(C)C1=O` (stereo not given) it is inactive: -1.07%.

As for `C/C(=N\Nc1ccc([N+](=O)[O-])cc1[N+](=O)[O-])c1cccc([N+](=O)[O-])c1`, the activation is inactive: 0.147%.

Consider `Cc1c(Nc2ccc([N+](=O)[O-])cc2[N+](=O)[O-])cccc1[N+](=O)[O-]`, for which the activation is inactive: -1.34%. As for `CC(C)NC(=O)N(Cc1ccco1)C1CCN(CCc2ccccn2)CC1`, the activation is inactive: 0.688%. As for `Cc1cc(NP2(=O)C=C(c3ccccc3)OC(c3ccccc3)=C2)n[nH]1`, the figure is inactive: 0.217%; as for `CCOP(=S)(OCC)c1cccc(C(=O)O)c1`, inactive: -0.263%. Regarding `O=[N+]([O-])c1cc([N+](=O)[O-])c(SCCNc2ccccc2)c([N+](=O)[O-])c1`, the activation is inactive: -0.518%. Take `Cn1c(SCC(=O)c2ccccc2OC(F)F)nc2ccccc21`: the activation is inactive: -0.255%. Consider `ClCCN1CCn2c1nc1ccccc12`, for which the activation is inactive: -0.502%.

For the molecule `O=[N+]([O-])c1cc([N+](=O)[O-])c2nc(-c3ccc([N+](=O)[O-])o3)[nH]c2c1`, the activation was inactive: -6.66%. The figure for `O=C(COC(=O)C(O)(c1ccccc1)c1ccccc1)NCc1ccc2c(c1)OCO2` is inactive: 0.124%. Regarding `CCOP(=O)(NNc1ccccc1)OCC`, the activation was inactive: -1.4%. The figure for `CCOc1ccc(NC(=O)c2cc([N+](=O)[O-])cc([N+](=O)[O-])c2)c([N+](=O)[O-])c1` is inactive: 0.249%; for `ClC(Cl)(Cl)C1=NP2(=NC(c3ccccc3)=N1)OCCCO2` it is inactive: 0.466%. As for `CCN/N=C/c1c([N+](=O)[O-])cc([N+](=O)[O-])cc1[N+](=O)[O-]`, the figure is inactive: 0.365%; as for `Nc1c([N+](=O)[O-])cc(C(=O)c2cc([N+](=O)[O-])c(N)c([N+](=O)[O-])c2)cc1[N+](=O)[O-]`, inactive: -0.0348%; as for `CC(=O)N(Cc1ccco1)C1CCN(CCc2cccs2)CC1`, inactive: 2.22%.

For `O=[N+]([O-])c1cc([N+](=O)[O-])c(CCN2CCOCC2)c([N+](=O)[O-])c1`, the activation is inactive: -2.18%.

Regarding `CN(C(=O)COC(=O)C(O)(c1ccccc1)c1ccccc1)c1ccccc1`, the activation is inactive: -0.909%. In the case of `O=[N+]([O-])c1ccc(Oc2ccccc2[N+](=O)[O-])c([N+](=O)[O-])c1`, the activation was inactive: -1.1%.

For the molecule `COc1ccc(NC2=NCC(CBr)S2)cc1` (stereo not given), the activation is inactive: 0.722%. As to `CCOP(=O)(OCC)C(=O)c1ccccc1Cl`, the activation was inactive: 0.129%. For the molecule `O=C(Nc1ccccc1[N+](=O)[O-])c1ccc([N+](=O)[O-])cc1[N+](=O)[O-]`, the activation was inactive: -0.596%. `O=[N+]([O-])c1cc([N+](=O)[O-])c(OCC(O)C[n+]2ccccc2)c([N+](=O)[O-])c1` (stereo not given): the activation is inactive: -0.234%. As to `CCOP(=Nc1nc2ccccc2n2nnnc12)(OCC)OCC`, the activation was inactive: 0.631%. Regarding `Oc1ccccc1CNc1ccccn1`, the activation is inactive: 0.413%. As for `COc1ccc2c(c1)nc(NCCCl)n2C`, the figure is inactive: -0.411%; as for `Nc1cc(N)c2nonc2c1[N+](=O)[O-]`, inactive: 0.101%; as for `O=C(Nc1ccc([N+](=O)[O-])cc1Cl)c1ccc([N+](=O)[O-])cc1[N+](=O)[O-]`, inactive: 0.973%. Regarding `CC(=O)OC=C1c2cc([N+](=O)[O-])cc([N+](=O)[O-])c2-c2c1cc([N+](=O)[O-])cc2[N+](=O)[O-]`, the activation is inactive: -0.614%. Consider `N=C1N=C(c2ccc([N+](=O)[O-])cc2)CC(C(Cl)(Cl)Cl)S1` (stereo not given), for which the activation is inactive: -0.406%. The figure for `Cc1cc(SC(NC(=O)CC(C)C)C(Cl)(Cl)Cl)ncn1` (stereo not given) is inactive: -1.13%. Take `Nc1c([N+](=O)[O-])cc([N+](=O)[O-])c(Nc2cccc(C(=O)O)c2)c1[N+](=O)[O-]`: the activation is inactive: 0.145%. As for `Cc1ccc(N/C(=N/P(=O)(N2CCOCC2)N2CCOCC2)N2CCOCC2)cc1`, the figure is inactive: -0.617%; as for `NC(=O)c1cc([N+](=O)[O-])cc([N+](=O)[O-])c1N`, inactive: 1.1%.

For `O=C(Nc1ccc(C(F)(F)F)cc1[N+](=O)[O-])c1cc([N+](=O)[O-])cc([N+](=O)[O-])c1`, the activation was inactive: -0.006%.

Take `CCOP(=O)(OCC)SCC(=O)NCCC(=O)O`: the activation was inactive: -0.329%. For `COC(=O)c1ccc(OP2(=S)OCC(C)(C)CO2)cc1`, the activation was inactive: -0.82%. Turning to `CCCCOP(=O)(OCCCC)SC`, the activation was inactive: -0.213%.

As to `CCN(CC)C1=NP(=O)(c2ccccc2)NC(c2ccccc2)=C1C#N` (stereo not given), the activation was inactive: -0.582%. The figure for `COc1ccc(CCN2CCC(N(Cc3ccco3)C(=O)NC(C)C)CC2)cc1` is inactive: -1.07%; for `CCOC(=O)N1C2CCC1CC(OC(=O)C(O)(c1ccccc1)c1ccccc1)C2` (stereo not given) it is inactive: -0.297%. As for `Cc1cc(C)nc(SC(NC(=O)C(C)C)C(Cl)(Cl)Cl)n1` (stereo not given), the figure is inactive: -0.0006%; as for `CCOc1ccc(/C=C2/C(=O)NC(=O)N(Cc3ccco3)C2=O)cc1`, inactive: -0.247%. On to `CC(=O)N(Cc1cccnc1)C1CCN(CCc2ccccn2)CC1`, for which the activation is inactive: 2.84%. For the molecule `ICC1CN=C(Nc2ncccn2)S1` (stereo not given), the activation was inactive: -0.167%. The figure for `CCCOP(=O)(OCCC)O/C(C)=C/SC#N` is inactive: -0.585%; for `CCOP(=O)(OCC)SCC(=O)NCC(=O)O` it is inactive: 1.01%; for `CCOP(=S)(OCC)C1(C#N)CCCC1` it is inactive: 0.668%. As for `O=[N+]([O-])c1ccc(N/N=C/c2cc3c(cc2[N+](=O)[O-])OCO3)c([N+](=O)[O-])c1`, the figure is inactive: 0.567%; as for `OP1(c2ccccc2)=NC(c2ccccc2)=NC(C(Cl)(Cl)Cl)=N1` (stereo not given), inactive: -0.229%. The figure for `O=C(Oc1ccc([N+](=O)[O-])cc1[N+](=O)[O-])c1ccc(Cl)cc1[N+](=O)[O-]` is inactive: -1.94%; for `O=C(c1cccnc1)N(Cc1ccco1)C1CCN(CCc2cccs2)CC1` it is inactive: 3.87%; for `Cc1cccc(NP(=O)(c2ccccc2)c2ccccc2)n1` it is inactive: -0.703%. Turning to `COP(=O)(OC)C(NC(=O)c1ccc(C)cc1)=C(Cl)Cl`, the activation was inactive: 0.899%. As to `COc1ccc(CCN2CCC(N(Cc3cccnc3)C(C)=O)CC2)cc1`, the activation was inactive: 0.478%.

For the molecule `CN(C)P1(=O)Nc2ccccc2S1` (stereo not given), the activation is inactive: 2.45%.
